Measurements as given in ChEMBL document CHEMBL3860041, “Synthesis, biological evaluation and molecular modeling study of some new methoxylated 2-benzylthio-quinazoline-4(3H)-ones as nonclassical antifolates” (Bioorg Med Chem Lett, 2016).

Test system: Escherichia coli
Conditions: IFO 3301

For GENTAMICIN, the MIC was 0.5 µg/mL.
